Earlier results, collected in patent publication US20080000473A1, “pH-Based Methods and Devices for Preventing Hemagglutinin Cell Membrane Fusion” (published 2008).

Legend:
cats = settings: 50 μL of 0.2 N instilled into the trachea
[1] = tested on: patients exposed to chlorine

| Molecule | increase in airway resistance (cats) | symptomatic relief ([1]; patients exposed to chlorine, nebulized) | clinical deterioration after nebulized use ([1]; patients with chlorine gas inhalation, retrospective review) |
| --- | --- | --- | --- |
| Cl | 420% |  |  |
| sodium bicarbonate |  | safely provide symptomatic relief | No patients in the study deteriorated clinically |
